# Tested on: KYSE-520 cells
# Test: Cell proliferation assay (MTS/PMS)
# Type: cell-based
# Details: Homo sapiens, 192 h, 1500 cells/well, RPMI-1640 3% FBS, read at day 8
# Protocol: KYSE-520 (1500 cells/well) were plated onto 96-well plates in 100 μL medium (RPMI-1640 containing 3% FBS for KYSE-520 cells, Gibco). For drug treatment, compounds of the invention at various concentrations were added 24 hours after cell plating. At day 8, 50 μL MTS/PMS reagents (Promega/Sigma) were added, and the absorbance value was determined according to the supplier's instruction (Promega). The IC50 results of the compounds of the invention were shown by table 3.
compound,measurement,value
"CC(=O)N1CC(F)(F)c2c(Sc3ncc(N4CCC5(CC4)COC[C@H]5N)nc3N)cccc21 [Example 7, (S)-1-(4-((3-amino-5-(4-amino-2-oxa-8-azaspiro[4.5]decan-8-yl)pyrazin-2-yl)thio)-3,3-difluoroindolin-1-yl)ethanone]",IC50,2170 nM
